These results are taken from ChEMBL document CHEMBL1157769, “Synthesis and opioid activity of novel 6-substituted-6-demethoxy-ethenomorphinans” (2010).

Sequences of proteins named here, by UniProt entry; tags and fusion partners are left off.
UniProt P33533, whole entry: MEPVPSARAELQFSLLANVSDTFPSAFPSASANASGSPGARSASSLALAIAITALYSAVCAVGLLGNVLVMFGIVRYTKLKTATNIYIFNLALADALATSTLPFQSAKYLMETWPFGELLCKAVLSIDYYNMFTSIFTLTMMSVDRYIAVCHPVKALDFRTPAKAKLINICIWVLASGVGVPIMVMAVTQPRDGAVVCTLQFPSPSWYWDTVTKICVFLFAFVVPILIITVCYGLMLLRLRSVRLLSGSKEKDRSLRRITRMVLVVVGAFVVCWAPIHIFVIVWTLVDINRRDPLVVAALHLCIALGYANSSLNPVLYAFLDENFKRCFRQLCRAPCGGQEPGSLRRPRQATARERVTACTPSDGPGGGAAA

pIC50: −log10 of the molar value.

This assay addresses Delta-type opioid receptor (Rattus norvegicus, UniProt P33533). Nature of the assay: Displacement of [3H]deltorphin-2 from delta opioid receptor from Wistar rat brain by liquid scintillation counting. For orientation: In a radioligand displacement assay an active substance lowers the binding of a labelled ligand.

Usually pIC50 stands for the IC50 on a negative log10 scale, so that one unit is a factor of ten. The low end stands for a high IC50, the high end for a low IC50.

Take `CO[C@]12C=C[C@@]3(C[C@@H]1C(C)(C)C)[C@H]1Cc4ccc(O)c5c4[C@@]3(CCN1C)[C@H]2O5`: the negative-log IC50 (pIC50) is 5.87.
